Biological target: T1, mouse β-catenin (mouse, UniProt Q02248 2-781)
T1 construct: mature; also called ^35S-labeled β-catenin
T1 sequence (looked up): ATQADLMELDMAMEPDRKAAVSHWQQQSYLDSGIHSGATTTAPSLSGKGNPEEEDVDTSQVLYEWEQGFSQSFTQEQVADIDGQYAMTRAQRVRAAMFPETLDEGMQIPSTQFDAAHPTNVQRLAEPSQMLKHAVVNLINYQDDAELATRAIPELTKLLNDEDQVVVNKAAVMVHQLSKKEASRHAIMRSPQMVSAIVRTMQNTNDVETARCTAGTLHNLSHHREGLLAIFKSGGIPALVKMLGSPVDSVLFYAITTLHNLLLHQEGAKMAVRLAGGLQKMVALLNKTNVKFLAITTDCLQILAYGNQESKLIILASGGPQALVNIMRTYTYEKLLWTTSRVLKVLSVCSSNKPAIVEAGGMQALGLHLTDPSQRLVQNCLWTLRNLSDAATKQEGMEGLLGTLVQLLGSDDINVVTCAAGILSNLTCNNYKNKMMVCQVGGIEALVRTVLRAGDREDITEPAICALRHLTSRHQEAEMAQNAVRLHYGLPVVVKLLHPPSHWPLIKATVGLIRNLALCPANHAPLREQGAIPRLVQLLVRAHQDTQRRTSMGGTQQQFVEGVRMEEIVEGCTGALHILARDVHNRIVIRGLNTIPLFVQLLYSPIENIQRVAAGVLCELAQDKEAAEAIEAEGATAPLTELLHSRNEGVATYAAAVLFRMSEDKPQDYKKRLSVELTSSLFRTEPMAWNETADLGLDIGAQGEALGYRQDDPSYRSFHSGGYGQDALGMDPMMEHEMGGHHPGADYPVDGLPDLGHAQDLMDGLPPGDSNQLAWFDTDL
Test: pull-down on glutathione-Sepharose 4B of ^35S-labeled β-catenin, autoradiography
Method: Analysis of Binding Between ICAT and β-catenin (1) Detection of the Direct Binding In Vitro The direct binding of ICAT to β-catenin was verified as follows. ^35S-labeled β-catenin was translated and synthesized from mouse β-catenin mRNA in vitro by using ^35S-labeled methionine TNT-reticulocyte lysate system (Promega). The GST/ICAT-expressing E. coli as well as control GST-expressing E. coli prepared in Example 3 were cultured to obtain the respective bacterial lysates. Glutathione-Sepharose 4B (Amersham-Pharmacia Biotech) was added to these bacterial lysates, and […] or GST was adsorbed on it to isolate it. The GST/ICAT- or GST-adsorbed glutathione-Sepharose 4B was reacted to the above-mentioned ^35S-labeled β-catenin in buffer A containing 0.1% Triton X-100 at 4° C. for 2 hours. After the glutathione-Sepharose 4B was washed well with buffer A and then SDS-PAGE sample buffer was added thereto to elute the bound protein to the sample buffer. The eluate was used as a sample in SDS-PAGE in which the gel concentration was 15% and then the gel was visualized by autoradiography. […] Accordingly, it has been verified that GST/ICAT directly binds to β-catenin in vitro and that the site responsible for the binding to β-catenin is located within the ICAT moiety of GST/ICAT.

B1: GST (glutathione S-transferase) alone (other, UniProt P08515 1-218, looked up)
chain: MSPILGYWKIKGLVQPTRLLLEYLEEKYEEHLYERDEGDKWRNKKFELGLEFPNLPYYIDGDVKLTQSMAIIRYIADKHNMLGGCPKERAEISMLEGAVLDIRYGVSRIAYSKDFETLKVDFLSKLPEMLKMFEDRLCHKTYLNGDHVTHPDFMLYDALDVVLYMDPMCLDAFPKLVCFKKRIEAIPQIDKYLKSSKYIAWPLQGWQATFGGGDHPPK
notes: Control protein from E. coli transformed with pGEX5X-1; also called control GST
  binding result: no binding
